# Measurements reported in publication PMC5501099, “Ivermectin susceptibility and sporontocidal effect in Greater Mekong Subregion Anopheles” (Malaria Journal, 2017).
# Test: Population pharmacokinetic model of ivermectin in healthy Thai volunteers
# Format: in vivo, human
# Conditions: single oral 200 µg/kg, centred on 55 kg
# Procedure: Frequent ivermectin plasma concentrations were collected in 23 healthy Thai volunteers after a standard 200 µg/kg dose. Ivermectin concentrations were transformed into their natural logarithms and characterized using nonlinear mixed-effects modelling in NONMEM version.7.3 (Icon Development Solution, Ellicott City, MD, USA). The first-order conditional estimation method with interaction was used throughout model development. Model diagnostics and automation were performed using Xpose version 4.0 [25], Pirana and Pearl-speaks-NONMEM (PsN; version 3.6.0). The objective function value (OFV; calculated by NONMEM as proportional to −2 × loglikelihood of data) was used to discriminate between hierarchical models. […] Models were assessed using standard goodness-of-fit and simulation-based diagnostics (i.e. numerical and visual predictive checks using 2000 simulations). The robustness of the final model was evaluated by bootstrapping (n = 1000).
# Different disposition models (one-, two- and three-compartment models) and absorption models (first-order and transit models) were evaluated to describe the pharmacokinetic structural model of ivermectin. […] The effect of body size was evaluated using an allometric function (centred on the medium trial weight of 55 kg), scaling clearances with an exponent of ¾ and volumes with an exponent of 1. […]
substance,measurement,value
ivermectin,"VC/F apparent volume of distribution of central compartment, population estimate (%RSE)",115 (4.38) l
same,"VP/F apparent volume of distribution of peripheral compartment, population estimate (%RSE)",157 (6.59) l
